pIC50: −log10 of the molar value.
Key:
opiated receptor K = opiated receptor K (Cavia porcellus, UniProt P41144); assay: Liaison with the opiated receptor K in vitro (displacement of 3H ethylketocyclazocine); format: binding; settings: read-out: 50% inhibiting concentration (IC50); guinea-pig cerebella membranes; 3H ethylketocyclazocine 1 nM; Tris pH 7.7; 25° C., 40 minutes
[1] = Hypotensive activity on the anaesthetized rat; format: in vivo, rat (Sprague Dawley); settings: injected into jugular vein
[2] = Anti-arrythmic activity in the rat (aconitine); format: in vivo; settings: intravenous, aconitine 5 minutes after
[3] = Analgesic activity (copper plate at 56° C., licking of front paws); settings: female mice; oral; 56° C. plate; 30 minutes after the treatment
[4] = Measurement of the diuretic activity; format: in vivo, rat (Sprague Dawley); settings: dose 10 mg/kg; oral; t1h-t5h
Description: 4) Measurement of the diuretic activity
Male rats of Sprague Dawley strain weighing 180 to 200 g were not fed for 17 hours before the test, but received water ad libitum. Groups of 8 animals were set up for each dose tested and the rats received the product under test or its vehicle orally. The urinary volume was measured every hour for the 5 hours following the administration of the product. At the end of this period, the urines were collected and the activity of the product was expressed as a percentage of variation calculated on the urinary volume corresponding to the period t1h -t5h.

Amino acid sequences for entries named in this document (tags omitted). A change or cut given only in a name is not applied to a line headed by its entry.
UniProt P41144: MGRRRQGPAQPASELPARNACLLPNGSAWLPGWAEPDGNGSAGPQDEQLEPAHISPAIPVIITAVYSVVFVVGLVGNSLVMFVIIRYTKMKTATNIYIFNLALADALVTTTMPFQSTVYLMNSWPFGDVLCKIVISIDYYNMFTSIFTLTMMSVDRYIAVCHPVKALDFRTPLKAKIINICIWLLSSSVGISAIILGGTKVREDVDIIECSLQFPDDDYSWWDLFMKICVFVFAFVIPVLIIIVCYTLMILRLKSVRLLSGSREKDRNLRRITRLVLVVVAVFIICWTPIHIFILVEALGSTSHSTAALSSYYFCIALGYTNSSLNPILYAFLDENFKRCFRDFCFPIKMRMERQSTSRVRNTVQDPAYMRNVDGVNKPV

SMILES | pIC50 (opiated receptor K) | variation of arterial pressure, 5 min. after administration ([1]; dose 1 mg/kg) [%] | variation of arterial pressure, 30 min. after administration ([1]; dose 1 mg/kg) [%] | variation of arterial pressure, 5 min. after administration ([1]; dose 10 mg/kg) [%] | variation of arterial pressure, 30 min. after administration ([1]; dose 10 mg/kg) [%] | percentage of extension of time of appearance of disturbances of the cardiac rhythm ([2]; dose 5 mg/kg) | percentage of extension of time of appearance of disturbances of the cardiac rhythm ([2]; dose 10 mg/kg) | AD100, dose which increased the reaction time by 100% [3] [mg/kg] | percentage of variation of the urinary volume [4]
CN(C(=O)Cc1ccc(Cl)c(Cl)c1)[C@@H]1c2ccccc2C[C@H]1N1CCCC1 (relative stereo) | 8.74 | -19 | -23 | -13 | -19 | +20.6% | +31.4% | 50 | 
CN(C(=O)Cc1cccc([N+](=O)[O-])c1)[C@@H]1c2ccccc2C[C@H]1N1CCCC1 (relative stereo) | 8.57 |  |  | -32 | -31 | +32% | +34.6% |  | +74%

— patent US5234944A (priority 1986, dated 1993)
